In the test the test system is TIA (transient ischemic attack) symptoms.

In the case of `C[N+]1(C)CCC(OC(=O)C(O)(c2ccccc2)C2CCCC2)C1` (stereo not drawn), the “effect on oral and pharyngeal secretions” value (2 mg glycopyrrolate along with midazolam 2.5 mg daily) was “drying up the oral and pharyngeal secretions”. In addition, the “swallowing on the second night” value (5 mg midazolam pump with 2 mg glycopyrrolate) is on record as “could swallow their own saliva”. Further, the “clinical state the next day” value (first night 5 mg midazolam and 2 mg glycopyrrolate along with 35% oxygen) is on record as “sitting talking to relatives, mentating better but could not swallow their own saliva”.

The values above are taken from patent publication US9433608B2 (priority 2013, dated 2016).
